# Binding of CDR-mutated scFvs to a peptide of the spike HR2 region

From the AlphaSeq antibody data of Li et al. 2023 (doi:10.1038/s41467-023-39022-2), copy in the FLAb collection.

All variants were tested on one target, the spike HR2 peptide PDVDLGDISGINAS (SARS-CoV-2).

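The variants were designed computationally from a first round of random CDR variants and then made and measured. Group labels follow the data file (Ctrl: baseline library sampled from a position-specific scoring matrix, with some repeated check sequences; En: ensemble of fine-tuned language models; GP: Gaussian process model; HC: hill climbing; Gen: genetic algorithm; Gibbs: Gibbs sampling; a sequence that several methods proposed may carry one label only). AlphaSeq pools MATa yeast showing the antibodies with MATalpha yeast showing the peptide. Mating (16 h, 30 °C) was followed by selection of diploids and sequencing of their barcodes. Scores were corrected for input abundance and mapped to Kd with protein pairs of known affinity run in the same pool. Each pool was mated in six replicate cultures.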

Parent: Ab-14, a human scFv built as VH, a 15-residue (Gly4Ser)3 linker, VL. Only the CDRs of the light chain vary.
VH: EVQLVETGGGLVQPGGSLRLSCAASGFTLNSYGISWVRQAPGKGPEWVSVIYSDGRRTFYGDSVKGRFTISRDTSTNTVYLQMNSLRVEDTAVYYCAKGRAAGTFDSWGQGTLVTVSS
VL: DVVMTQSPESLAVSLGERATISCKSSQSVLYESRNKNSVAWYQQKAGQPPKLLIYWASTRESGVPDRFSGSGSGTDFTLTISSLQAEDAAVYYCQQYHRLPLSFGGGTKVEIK

Variants are written as CDR1, CDR2 and CDR3 of the light chain (limits as in the source). Parent: KSSQSVLYESRNKNSVA, WASTRES, QQYHRLPLS.
Values are log10 of the apparent Kd in nM; lower means stronger binding.
Averages over replicates are reported, and they cover detected replicates only.
"n.d." marks a missing value. The strain was present, yet no cells mated with the target were sequenced in that replicate, which points to weak or no binding.
Entries are sorted by rising average, undetected variants last.
Values of this round are not directly comparable with the first-round values of the same sequences.
The authors' rule: three or more of the six replicates give a measured affinity, fewer mean a poor binder.
As a blank, each scFv also met three strains without target: over all light chain designs, 4% of these pairings were detected, typically at 2.64 and seldom below 1.59.

CDR-L1 | CDR-L2 | CDR-L3 | group | log10 Kd (nM) by replicate | mean, log10 nM
KLSQSVLYESRNKNNVA | DASTRCS | QQYHRLPLS | GP_Gen | -0.50 / -0.56 / -0.68 / -0.64 / -0.60 / -0.45 | -0.57
KSSQSELFESRNKNSVA | DASTREA | QQYHRLPLS | GP_HC | -0.13 / -0.52 / -0.47 / -0.32 / -0.38 / -0.30 | -0.35
KLSMQEMMESRNKNSVA | QANTREE | QQYHRLPLS | GP_Gibbs | -0.21 / -0.27 / -0.40 / -0.42 / -0.48 / -0.28 | -0.34
KVSQSELYESRNKNSVA | NASTRES | QQYHRLPLQ | GP_Gen | 0.05 / -0.27 / -0.19 / -0.35 / -0.41 / -0.09 | -0.21
KLSQSVLYESRNQNSVA | NASTRES | QQYHRLPLS | GP_Gen | 0.23 / 0.08 / -0.09 / -0.07 / -0.05 / 0.15 | 0.04
KLSQSKGGESRNPNSVA | NASTRER | QQYHRLPLS | GP_Gibbs | 0.19 / 0.33 / -0.18 / -0.08 / 0.09 / 0.10 | 0.08
HISMMVGTKGYAKNSVA | NEETRYD | QQYHRLPLS | En_HC | 0.10 / -0.06 / 0.14 / -0.05 / -0.08 / 0.44 | 0.08
KSSQSEDYESRNKNSVA | DASTRES | QQYHRLPLS | GP_HC | 0.30 / 0.26 / 0.36 / -0.18 / -0.12 / 0.34 | 0.16
KSSQSGSYESRNKNSVA | HATTRES | QQYHRLPLS | Ctrl | 0.46 / 0.04 / 0.25 / 0.18 / 0.06 / 0.35 | 0.23
KSSISYLYESMNKNSVA | EGSYRES | QQYHRLPLS | GP_HC | 0.24 / 0.67 / 0.18 / 0.07 / 0.35 / 0.39 | 0.32
KSSQSVLYEHRDKNSVA | SASTRMD | QQYHRLPLS | Ctrl | 1.13 / n.d. / 0.07 / 0.18 / -0.35 / 0.56 | 0.32
KLSQSFLYESRNKNSVA | HASTRCS | QQYHRLPLS | GP_Gen | 0.56 / 0.54 / 0.39 / -0.04 / 0.26 / 0.50 | 0.37
MVSQLMLWGHLAKNSIA | EAQMRLN | QQYDRLPLI | En_Gen | -0.18 / 1.57 / n.d. / -0.07 / n.d. / n.d. | 0.44
KLSMQVMMWSRNTNSVA | SANTREE | QQYHRLPLS | GP_Gibbs | 1.00 / 0.47 / 0.30 / -0.21 / 0.24 / 0.97 | 0.46
KISQSVLYESSNKNSVA | SADTRES | QQYHRLPLS | Ctrl | 0.36 / 0.60 / 0.16 / 0.65 / 0.72 / 0.53 | 0.50
TIGQSVHETSKIKNSVA | HASMRED | QQYDRLPLS | En_HC | 0.72 / 0.29 / 0.46 / 0.64 / 0.57 / 0.65 | 0.56
KSSISQDYEDRNQNSVA | SASQREH | QQYHRLPLS | GP_Gibbs | 0.94 / 0.51 / 0.11 / 0.75 / 0.67 / 0.67 | 0.61

The remaining entries, values ahead:

log10 Kd (nM) by replicate | mean, log10 nM | CDR-L1 | CDR-L2 | CDR-L3 | group
0.26 / 0.87 / 0.73 / 0.62 / 0.57 / 0.73 | 0.63 | NFAQMVLTGSTLRNSVA | HASTREE | QQYHRLPLI | En_HC
0.58 / 0.64 / 0.56 / 0.87 / 0.77 / 0.52 | 0.66 | KFSQSALYGERMKNSVA | NASQRLS | QQYHRLPLS | GP_Gibbs
0.66 / 0.63 / 1.06 / 0.37 / 0.65 / 1.10 | 0.74 | TISNVMNTLTRLGNNVA | DLAERED | QQYFRLPLS | En_Gen
1.13 / 0.97 / 0.19 / 0.64 / 0.81 / 0.74 | 0.75 | KFSQMVNIESTHVNAVA | QMSTREE | QQYHRLPLS | En_HC
0.88 / 0.87 / 0.77 / 0.75 / 0.59 / 0.85 | 0.79 | QIQGKLQEHGNQGANVA | QGVESRN | QQYFRLPLT | En_Gibbs
0.53 / 1.35 / 1.70 / 0.71 / 0.26 / 0.79 | 0.89 | KVSQSVLTTSRNKNSVA | MASTRES | QQYHRLPLS | Ctrl
0.97 / 1.02 / 0.89 / 0.84 / 0.75 / 0.97 | 0.91 | TLYGLSMSMSKNKNSVA | EMTTREK | QQYDRLPLM | En_Gen
0.83 / 1.10 / 0.79 / 0.92 / 1.07 / 0.95 | 0.94 | TLVQSVMGSSRTKNSVA | NAETREE | QHYHRLPLS | En_HC
1.01 / 1.20 / 0.64 / 0.96 / 0.68 / 1.22 | 0.95 | KSSQSVLYESRNKNSVA | WASTRVP | QQYHRLPLS | Ctrl
1.50 / 0.87 / 0.79 / 0.74 / 0.83 / 1.06 | 0.97 | KSSQSVLYESRNVNSMA | AASTRES | QQYHMLPLS | Ctrl
1.05 / 0.64 / 1.49 / 0.61 / 0.52 / 1.80 | 1.02 | KLSPSVMYESRMKNSVA | MASTRYS | QQYHRLPLS | GP_Gibbs
1.36 / 1.36 / 0.74 / 1.18 / 1.38 / 1.21 | 1.20 | KLLQQTLYESRNKNSVA | WASTREE | QQYHRLPLS | GP_HC
1.19 / 1.84 / 1.11 / 1.12 / 1.29 / 0.88 | 1.24 | KLSQSNLYESRNKNAVA | NASTRES | QQYHRLPLS | GP_Gen
1.77 / 1.41 / 1.37 / 1.83 / 1.59 / 1.28 | 1.54 | KSSISVLYESTNKNSVA | WASTREV | QQYHRLPLS | Ctrl
1.37 / 1.51 / 2.68 / n.d. / 1.87 / 2.74 | 2.03 | KSEQSVLYESHNKNSVA | WASTRES | QQYHVLPAS | Ctrl
n.d. / 2.05 / n.d. / n.d. / n.d. / n.d. | 2.05 | KISMSITFESRNKNNVA | ENSTRES | QSYHRLPLS | En_HC
1.59 / 3.21 / 1.99 / 1.52 / 2.45 / 2.21 | 2.16 | KISMLINTTFEVSNNVA | EMVTRMK | QQYNRLPLS | En_Gen
n.d. / n.d. / n.d. / n.d. / n.d. / n.d. | n.d. | KSSQSVLYESRNKNSVA | WASTRER | QQYHRLPLS | Ctrl

A selection of 3 entries from above:

CDR-L1 | CDR-L2 | CDR-L3 | group | log10 Kd (nM) by replicate | mean, log10 nM
KVSQSVLTTSRNKNSVA | MASTRES | QQYHRLPLS | Ctrl | 0.53 / 1.35 / 1.70 / 0.71 / 0.26 / 0.79 | 0.89
NFAQMVLTGSTLRNSVA | HASTREE | QQYHRLPLI | En_HC | 0.26 / 0.87 / 0.73 / 0.62 / 0.57 / 0.73 | 0.63
KSSQSVLYESRNKNSVA | WASTRVP | QQYHRLPLS | Ctrl | 1.01 / 1.20 / 0.64 / 0.96 / 0.68 / 1.22 | 0.95